Values quoted from earlier work in US20190192060A1, “DEVICE AND METHOD FOR BLOOD VOLUME MEASUREMENT” (Oregon Health & Science University, priority 2017, published 2019).

Conditions: in vivo; cited from earlier work

With “^131I-HSA: radiolabeled human serum albumin, blood volume indicator of the Daxor BVA-100, marketed as Volumex” as the substance, how does the “time remaining in circulation” value read?
The value was 18 to 28 h.
